Assay outcomes as filed in PubChem.
NALP1 inh: inhibitors of NALP1 inflammasome in yeast; inhibition, % at 10 µM; hit rate 0.61% among 280,000; S. cerevisiae NALP1/ASC/caspase-1 growth, X-gal OD620, 72 h; AID 2071; in the data active = inhibition mostly above about 24%, no sharp cut-off; inactive = mostly below about 32%
MC4R antagonist: blocks human MC4R cAMP signaling; P32245; MC4R-expressing cells, MTII-stimulated cAMP, LANCE TR-FRET; inhibition, % at 6.5 µM; hit rate 0.48% among 360,000;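 active = inhibition above its plate's cutoff, the mean of tested wells on that plate plus 3 SD, cut at about 29% in these data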
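System: U2OS cells stably expressing human melanocortin 4 receptor (MC4R). Reagent: Melanotan II challenge after compound preincubation. Doses: 6.5 µM. Times: 30-min compound, 1-h challenge, 1-h detection, room temperature. Measured by: TR-FRET with Eu-cAMP and labeled anti-cAMP, 671 nm. Replicates: singlicate.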
ALR H2O2 inh: blocks human ALR sulfhydryl oxidase activity; inhibition, % (concentration not given with the values); purified ALR, DTT oxidation, H2O2 HRP-luminol luminescence; P55789; 3.8% of 290,000 active;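 active = mean and each replicate at 75% or more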;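 also: stock transfer was 7.5 nL into about 7.5 µL; 0% = neutral wells and 100% = wells with inactivated enzyme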
MC4R barr agon: agonists of human melanocortin 4 receptor (MC4R) beta-arrestin. AID 540308. activation, % at 8.9 µM. U2OS MC4R beta-arrestin complementation, luminescence; percent of melanotan II response, DMSO zero. hit rate 0.98% among 360,000. P32245;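 active = activation above a per-plate cutoff, the mean activation of sample wells on that plate plus 3 SD, cut at about 8% in these data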
UUG fidelity: modulators of yeast start codon fidelity, primary screen, whole organism, S. cerevisiae, single point, plate reader; S. cerevisiae UUG-firefly luciferase reporter, luminescence/redox ratio; activity score, % at 18.7 µM; actives 0.13% (n = 350,000);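 active means replicate mean at a twofold rise or more, about +100% in these data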;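 further: firefly luciferase made from a UUG start codon reports start codon fidelity; reporter light over untreated wells divided by growth signal over untreated wells; some hits fall short of that in this replicate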
HDAC3 inh: blocks human histone deacetylase 3 | O15379 | recombinant HDAC3, fluorogenic peptide/trypsin coupled, fluorescence | inhibition, % at 8.3 µM | hit rate 0.15% among 320,000 | AID 2718; in the data active = inhibition above about 26%, passing the limit was not always enough
Large screens that a line does not name were inactive. Sampled rows, rich in hits. Any-hit rate of the full collection: about 4.2%.

CCCC#Cc1cnc2c(c1)C(=O)N([C@H](C)CO)C[C@H](C)[C@H](CN(C)C(=O)Nc1ccc(OC)cc1)O2	none (no result: NALP1 inh, MC4R antagonist, ALR H2O2 inh, MC4R barr agon, HDAC3 inh)
CCc1ccc(N=CC2=C(O)CC(c3ccco3)CC2=O)cc1 (stereo not given)	NALP1 inh 38
Nc1ccc(C(=O)N(CCO)CCO)cc1	none (no result: UUG fidelity)
Nc1ccc(N(CCO)CCO)cc1	ALR H2O2 inh 97 (no result: UUG fidelity)
CCN(CC)c1ccc(N)cc1	ALR H2O2 inh 97 (no result: NALP1 inh)
COc1cc2nc(NCC3CCCO3)n3nc(-c4cccnc4)nc3c2cc1OC (stereo not given)	NALP1 inh 37
CCCNC(=O)C[C@@H]1C[C@H]2c3cc(NC(=O)c4cccnc4)ccc3O[C@H]2[C@H](CO)O1	none (no result: NALP1 inh, MC4R antagonist, ALR H2O2 inh, MC4R barr agon, HDAC3 inh)
Cc1ccc(C)c(NC(=O)CSc2nc3ccc(N4C(=O)c5ccccc5C4=O)cc3s2)c1	ALR H2O2 inh 86
O=C(CNc1cc([N+](=O)[O-])ccc1NCCO)Nc1cccc(S(=O)(=O)N2CCCCC2)c1	ALR H2O2 inh 97 (no result: NALP1 inh)
O=c1[nH][nH]c(-c2ccccc2O)c1C(C[N+](=O)[O-])c1ccc(Br)cc1 (stereo not given)	NALP1 inh 102, ALR H2O2 inh 88
O=[N+]([O-])CC(c1ccc(F)cc1)c1c[nH]c2ccccc12 (stereo not given)	none
Cc1ccc(C(C[N+](=O)[O-])c2c(-c3ccccc3O)[nH][nH]c2=O)cc1 (stereo not given)	NALP1 inh 114, ALR H2O2 inh 86 (no result: UUG fidelity)
O=C(NC1CCCC1)N[C@@H]1CC[C@@H](CC(=O)N2CCOCC2)O[C@H]1CO	none (no result: NALP1 inh, MC4R antagonist, ALR H2O2 inh, MC4R barr agon, HDAC3 inh)
CC(=O)Cc1nsc(NC(=O)c2ccc(COc3ccccc3)o2)n1	ALR H2O2 inh 98
CC(=O)Cc1nsc(NC(=O)c2ccc(COc3ccccc3Cl)o2)n1	none (no result: ALR H2O2 inh)
CC=Cc1ccc2n(c1=O)C[C@@H]1[C@@H](CO)[C@H](C(=O)NCc3ccccc3)[C@H]2N1C (mixture of isomers)	none (no result: NALP1 inh, MC4R antagonist, ALR H2O2 inh, MC4R barr agon, HDAC3 inh)
O=C1NC(=O)C(c2ccccc2[N+](=O)[O-])=C1Nc1ccc(O)c(Cl)c1	ALR H2O2 inh 99
O=C(NNc1ccccc1[N+](=O)[O-])Nc1ccc(Cl)c(Cl)c1	none (no result: UUG fidelity)
O=C(Cc1cccnc1)N[C@H]1CC[C@@H](CCn2cc(Cc3ccccc3)nn2)O[C@H]1CO	none (no result: NALP1 inh, MC4R antagonist, ALR H2O2 inh, MC4R barr agon, HDAC3 inh)
COc1ccc(C(=O)Nc2ccccc2C(=O)NC(C)C)cc1OC	NALP1 inh 36
COc1ccc(C(=O)Nc2ccccc2C(=O)N2CCCCCC2)cc1OC	none
COC(=O)c1ccc(NC(=O)c2ccc(OC(C)=O)c(OC)c2)cc1	none
COc1cc(C(=O)Nc2ccc(O)cc2C(=O)O)ccc1OC(C)=O	ALR H2O2 inh 87 (no result: UUG fidelity)
COc1ccc(-n2cnc3cc(C(=O)NCCN4CCOCC4)ccc32)cc1	none (no result: UUG fidelity)
COc1ccc(OC)c(-n2cnc3cc(C(=O)NCCCN4CCOCC4)ccc32)c1	NALP1 inh 23 (no result: ALR H2O2 inh)
CCOc1ccc(-n2c(C)nc3cc(C(=O)NCCCN4CCOCC4)ccc32)cc1	NALP1 inh 26
NNC(=S)NCc1ccc2c(c1)OCO2	NALP1 inh 105 (no result: UUG fidelity)
O=C(Nc1cc(C(F)(F)F)cc(C(F)(F)F)c1)c1ccc(Cn2cc(C(F)(F)F)ccc2=O)cc1	MC4R barr agon 8.4
O=C(Nc1ccccc1)c1ccc(Cn2cc(C(F)(F)F)ccc2=O)cc1	none
CCCOC(=O)c1c(NC(=O)CCC(=O)O)sc2c1CCCCC2	ALR H2O2 inh 89 (no result: UUG fidelity)
CCCC(=O)Nc1sc2c(c1C(=O)Nc1ccccn1)CCCC2	ALR H2O2 inh 97
COc1ccc(CNC(=O)c2cc3c(=O)n4cccc(C)c4nc3n(CC3CCCO3)c2=N)cc1 (stereo not given)	NALP1 inh 36
Cn1cnc(S(=O)(=O)N2CCCCN3[C@H](CO)[C@@H](c4ccc(-c5cccc(F)c5)cc4)[C@@H]3C2)c1	none (no result: NALP1 inh, MC4R antagonist, ALR H2O2 inh, MC4R barr agon, HDAC3 inh)
CC(=O)c1ccc(S(=O)(=O)N2CCNC(=O)C2)cc1	ALR H2O2 inh 97 (no result: NALP1 inh)
CC(=O)Nc1ccc(S(=O)(=O)N2CCNC(=O)C2)cc1	none (no result: NALP1 inh, UUG fidelity)
COCC(=O)N1C[C@@H](C)[C@H](OC)CN(C)C(=O)c2cc(NC(=O)NC(C)C)ccc2OC[C@H]1C	none (no result: NALP1 inh, MC4R antagonist, ALR H2O2 inh, MC4R barr agon, HDAC3 inh)
C[C@H]1CN([C@@H](C)CO)C(=O)c2cccc(NC(=O)Nc3ccc4c(c3)OCO4)c2O[C@@H]1CN(C)C	none (no result: NALP1 inh, MC4R antagonist, ALR H2O2 inh, MC4R barr agon, HDAC3 inh)
CC(C)C(CCN1C(=O)c2ccccc2C1=O)c1ccco1 (stereo not given)	ALR H2O2 inh 90
